How the values were obtained:
Cannabinoid receptor 1 [1] = target: Cannabinoid receptor 1 (Homo sapiens, UniProt P21554)
Cannabinoid receptor 2 = target: T1, Cannabinoid receptor 2 (Rattus norvegicus, UniProt Q9QZN9)
T1 sequence (Q9QZN9 whole entry): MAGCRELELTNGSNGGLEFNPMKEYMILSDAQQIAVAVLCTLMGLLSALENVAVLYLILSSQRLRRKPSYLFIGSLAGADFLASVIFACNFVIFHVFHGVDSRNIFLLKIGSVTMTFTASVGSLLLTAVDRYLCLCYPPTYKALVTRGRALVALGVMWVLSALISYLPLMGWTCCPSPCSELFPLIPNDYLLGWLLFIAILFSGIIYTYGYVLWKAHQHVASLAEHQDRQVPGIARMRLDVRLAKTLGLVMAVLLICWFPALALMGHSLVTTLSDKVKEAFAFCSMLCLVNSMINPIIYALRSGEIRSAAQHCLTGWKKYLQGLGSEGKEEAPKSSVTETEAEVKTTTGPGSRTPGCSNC

Protein sequences, listed by entry. Tags and fused reporters are not part of them.
UniProt P21554, whole entry: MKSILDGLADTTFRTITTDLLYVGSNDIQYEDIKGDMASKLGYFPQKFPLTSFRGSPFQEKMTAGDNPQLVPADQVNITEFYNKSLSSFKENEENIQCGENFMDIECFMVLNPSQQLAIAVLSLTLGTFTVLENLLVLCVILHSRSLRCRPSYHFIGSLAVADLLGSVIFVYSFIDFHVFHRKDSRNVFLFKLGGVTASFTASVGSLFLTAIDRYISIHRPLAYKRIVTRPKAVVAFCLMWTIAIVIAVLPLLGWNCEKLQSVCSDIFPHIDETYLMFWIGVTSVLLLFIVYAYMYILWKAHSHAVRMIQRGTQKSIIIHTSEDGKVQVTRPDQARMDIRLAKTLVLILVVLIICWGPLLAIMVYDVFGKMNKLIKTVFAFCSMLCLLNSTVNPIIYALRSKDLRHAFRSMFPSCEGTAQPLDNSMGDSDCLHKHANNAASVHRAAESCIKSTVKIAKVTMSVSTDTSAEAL
UniProt P20272, whole entry: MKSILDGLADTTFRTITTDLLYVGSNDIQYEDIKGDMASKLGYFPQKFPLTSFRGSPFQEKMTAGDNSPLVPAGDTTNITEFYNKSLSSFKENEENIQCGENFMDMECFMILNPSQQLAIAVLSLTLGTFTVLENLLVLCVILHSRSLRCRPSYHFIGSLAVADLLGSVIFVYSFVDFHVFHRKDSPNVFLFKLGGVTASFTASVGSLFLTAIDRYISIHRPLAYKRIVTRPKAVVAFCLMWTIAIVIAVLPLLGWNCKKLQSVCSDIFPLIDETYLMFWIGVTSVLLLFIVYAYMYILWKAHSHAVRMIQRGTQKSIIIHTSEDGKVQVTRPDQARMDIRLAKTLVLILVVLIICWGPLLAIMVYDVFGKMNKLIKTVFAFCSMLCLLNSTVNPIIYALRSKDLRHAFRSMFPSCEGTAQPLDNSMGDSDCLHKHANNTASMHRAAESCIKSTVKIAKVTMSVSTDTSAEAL

Cannabinoid receptor 1 [2] = target: Cannabinoid receptor 1 (Rattus norvegicus, UniProt P20272)

SMILES: Cc1ccc(Cn2nc(C(=O)NC3C(C)(C)C4CC[C@@]3(C)C4)cc2-c2ccc(Cl)c(C)c2)cc1 (stereo partly drawn) [N-(1,3,3-trimethylbicyclo(2.2.1)heptan-2-yl)-5-(4-chloro-3-methylphenyl)-1-(4-methylbenzyl)pyrazole-3-carboxamide]
- Ki (Cannabinoid receptor 1 [1]): 437 nM
- Ki (Cannabinoid receptor 2): 0.3 nM
- Ki (Cannabinoid receptor 1 [2]): 305 nM

Reference: BindingDB's records for PubMed 9454810 (Sanofi Recherche, 1998)
